Results published in patent EP4129319A1, “PORE-FORMING ANTIMICROBIAL PEPTIDES” (priority 2021, dated 2023).

Test system: human red blood cells (HRBCs)
Assay type: cell-based
Conditions: hemolysis assay, read-out: Toxicity (EC50 in µM) HRBCs
Method: Chemicals. […] (Prague, Czech Republic), and Caslo ApS (Kongens Lyngby, Denmark). […] The bacterial stock was stored at -80°C.
Hemolysis assay. Hemolytic toxicity of the peptides was evaluated from their ability to lyse the fresh human red blood cells (HRBCs) collected from the University Hospital (Brno, Czech Republic). To obtain the erythrocyte pellets, the blood samples were centrifuged twice at 700×g and subsequently, once at 1000×g, each for 8 min. at 4 °C, which was followed by thorough washing with PBS. Resuspension of the pellets was done in PBS to obtain 0.5% (vol/vol) RBC suspension. In a well plate with 96 V-shaped bottom wells, the peptides were added in a dilution series from 0.1 to 50 µM concentration. Subsequently, HRBC suspension was added in each well. Negative control wells contained only PBS and HRBC suspension without any peptide (i.e., 0% lysis), and positive control wells included 5 µM melittin in the HRBC suspension. After incubation for 1 h at 37 °C, the well plates were centrifuged at 1000×g for 10 min. at 4 °C. Subsequently, the supernatant was collected in a flat-bottomed well plate and the optical density of the released hemoglobin was measured for each well at 415 nm wavelength. The calculated absorbances from the wells were then normalized against the averaged absorbances of the positive and the negative control wells. […]

CC[C@H](C)[C@H](NC(=O)CN)C(=O)NCC(=O)N[C@@H](C)C(=O)N[C@H](C(=O)N[C@@H](CC(C)C)C(=O)N[C@@H](CCCCN)C(=O)N[C@H](C(=O)N[C@@H](CC(C)C)C(=O)N[C@H](C(=O)N[C@H](C(=O)NCC(=O)N[C@@H](CC(C)C)C(=O)N1CCC[C@H]1C(=O)N[C@@H](C)C(=O)N[C@@H](CC(C)C)C(=O)N[C@H](C(=O)N[C@@H](CO)C(=O)N[C@@H](Cc1c[nH]c2ccccc12)C(=O)N[C@H](C(=O)N[C@@H](CCCCN)C(=O)N[C@@H](CCCNC(=N)N)C(=O)N[C@@H](CCCCN)C(=O)N[C@@H](CCCNC(=N)N)C(=O)N[C@@H](CCC(N)=O)C(=O)N[C@@H](CCC(N)=O)C(N)=O)[C@@H](C)CC)[C@@H](C)CC)[C@@H](C)O)[C@@H](C)O)C(C)C)C(C)C [melittin, reference compound]
EC50: 0.9 µM
